{
  "source": "patent US20060135612A1",
  "about": "“Method of ameliorating or abrogating the effects of a neurodegenerative disorder, such as amyotrophic lateral sclerosis (ALS), by using a HDAC inhibiting agent” (U.S. Department of Veterans Affairs, priority 2004, published 2006)",
  "key": {"bcl-2 mRNA": {"tested_on": "bcl-2 mRNA", "conditions": "G93A mice, 400 mg/kg/d for 2 weeks, vs PBS"}},
  "data": [
    {"substance": "sodium phenylbutyrate [PBA]", "values": [
      {"measurement": "Survival (Days ± SD)", "setting": "G93A transgenic ALS mice; G93A mice, 100 mg/kg/d i.p.", "value": "126.0 ± 4.0", "unit": "days"},
      {"measurement": "effect on survival relative to riluzole", "setting": "G93A transgenic ALS mice; transgenic SOD1 mice", "value": "more than two-fold greater"},
      {"measurement": "increase of bcl-2/GAPDH ratio (densitometric analysis)", "setting": "bcl-2 mRNA", "value": 31.4, "unit": "%"}
    ]}
  ]
}
